Laboratory results as given in patent US20230190934A1, “METHODS AND COMPOSITIONS FOR TREATING A TUMOR” (Rakuten Medical, Inc., priority 2020, published 2023).

Legend:
[1] = tested on: A-431 epidermoid carcinoma cells; test: IFN-α2 and IFN-β release after PIT, MesoScaleDiscovery assay; format: cell-based; conditions: 1 hour after PIT treatment, compared to untreated cells
Method: (§1) In some aspects, release of interferon-α proteins (IFNα) and/or interferon-β (IFNβ) from cancer cells is consistent with immunogenic cell death (ICD), and can enhance innate and adaptive cell functionality. A-431, BxPC3, and FaDu cells were incubated with anti-EGFR-IR700 and subjected to illumination, to effect PIT treatment, as described above. Untreated cells served as a control. 1 hour after treatment, IFN-α2 and IFN-β were measured in the medium of treated and untreated cells using a MesoScaleDiscovery IFN-α2 and IFN-β assay.

BxPC3 cells = test: as above; format: cell-based; conditions: 1 hour after PIT treatment, compared to untreated cells
Method: as §1

FaDu cells = test: as above; format: cell-based, human; conditions: 1 hour after PIT treatment, compared to untreated cells
Method: as §1

[2] = tested on: EGFR-expressing A-431 epidermoid carcinoma cells; test: HMGB1 release into culture supernatant after PIT, ELISA; format: cell-based; conditions: illuminated at 32 J/cm^2, compared to no light control
Method: (§2) EGFR-expressing A-431 (ATCC® CRL-1555™) epidermoid carcinoma and FaDu (ATCC® HTB-43™) squamous cell carcinoma cells were incubated with anti-EGFR-IRDye 700DX. The tumor cells were illuminated at 32 J/cm^2 for PIT-mediated killing of target cells, and the culture supernatants were assessed for secretion of HMGB1 using an enzyme-linked immunosorbent assay (ELISA). Cells not treated with light served as controls.

[3] = tested on: FaDu squamous cell carcinoma cells; test: as above; format: cell-based, human; conditions: illuminated at 32 J/cm^2, compared to no light control
Method: as §2

[4] = tested on: EGFR-expressing A-431 epidermoid carcinoma cells; test: Cell surface expression of HSP70, HSP90 and calreticulin after PIT, flow cytometry; format: cell-based; conditions: 6 J/cm^2, 690 nm laser, compared to no light control
Method: (§3) Cell surface expression of HSP70, HSP90, and calreticulin (CRT) was evaluated after incubation with an exemplary antibody-IR700 conjugate and light treatment (PIT) as additional indicators of ICD.
(§4) EGFR-expressing A-431 (ATCC® CRL-1555™) epidermoid carcinoma and FaDu (ATCC® HTB-43™) squamous cell carcinoma cells were incubated with anti-EGFR-IRDye 700DX. A-431 cells were illuminated at 6 J/cm^2 and FaDu cells were illuminated at 12 J/cm^2, with a 690 nm laser. Cell surface expression of HSP70, HSP90, and calreticulin (CRT), were measured by flow cytometry after staining with antibodies specific for each protein. Cells not treated with light served as controls.

[5] = tested on: FaDu squamous cell carcinoma cells; test: as above; format: cell-based, human; conditions: 12 J/cm^2, 690 nm laser, compared to no light control
Method: as §3, §4

With “CTX-IR700: exemplary antibody-IR700 conjugate, anti-EGFR (cetuximab)-IRDye 700DX” the “IFN-α2 release into the medium” value [1] was “significantly more”, the “IFN-β release into the medium” value [1] was “significantly more” and the “IFN-α2 release into the medium” value (BxPC3 cells) was “A similar increase was not observed”. For the same substance, the “IFN-β release into the medium” value (BxPC3 cells) was “A similar increase was not observed”, the “IFN-α2 release into the medium” value (FaDu cells) was “A similar increase was not observed” and the “IFN-β release into the medium” value (FaDu cells) was “A similar increase was not observed”. For the same substance, the “HMGB1 release into the supernatant” value [2] was “large increase”, the “HMGB1 release into the supernatant” value [3] was “large increase” and the “Cell surface expression of HSP70” value [4] was “increased expression”. For the same substance, the “Cell surface expression of HSP90” value [4] was “increased expression”, the “Cell surface expression of calreticulin (CRT)” value [4] was “increased expression” and the “Cell surface expression of HSP70” value [5] was “increased expression”. The “Cell surface expression of HSP90” value [5] was “increased expression” and the “Cell surface expression of calreticulin (CRT)” value [5] was “increased expression”.
